{
  "sequences": {"note": "Amino acid sequences for entries named in this document (tags omitted). Residues count along the entry.", "UniProt A0A075M2J8, 1-555": "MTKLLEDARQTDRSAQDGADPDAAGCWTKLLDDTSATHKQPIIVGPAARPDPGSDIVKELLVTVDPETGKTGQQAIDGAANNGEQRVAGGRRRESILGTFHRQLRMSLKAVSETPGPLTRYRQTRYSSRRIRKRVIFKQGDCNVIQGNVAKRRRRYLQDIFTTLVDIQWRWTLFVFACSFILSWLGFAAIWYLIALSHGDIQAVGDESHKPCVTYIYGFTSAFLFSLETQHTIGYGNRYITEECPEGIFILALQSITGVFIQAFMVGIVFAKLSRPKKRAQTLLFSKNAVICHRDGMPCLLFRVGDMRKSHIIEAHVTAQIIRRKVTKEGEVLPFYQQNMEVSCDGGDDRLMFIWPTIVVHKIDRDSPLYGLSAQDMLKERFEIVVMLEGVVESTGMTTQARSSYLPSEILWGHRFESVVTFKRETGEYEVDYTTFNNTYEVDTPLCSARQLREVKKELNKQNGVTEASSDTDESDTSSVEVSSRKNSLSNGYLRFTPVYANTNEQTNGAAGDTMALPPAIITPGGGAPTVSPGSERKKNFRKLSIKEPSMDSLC"},
  "source": "patent US11632953B2",
  "about": "“Method for controlling hematophagous or sap-feeding arthropods” (Board of Supervisors of Louisiana State University and …, priority 2016, dated 2023)",
  "target": "AnKir1 (Anopheles gambiae, UniProt A0A075M2J8)",
  "test": "thallium (Tl+) flux assay",
  "data": [
    {"smiles": "O=C(Cn1nc(C(F)(F)F)c2c1CCCC2)N1CCc2ccccc2C1", "values": [
      {"measurement": "loss of potency vs VU041", "value": 7, "unit": "fold"}
    ]}
  ]
}
